Measurements taken from PubChem BioAssay AID504882 (Broad Institute, 2011).
Inconclusive results are not listed.

Tested on: EBV lymphoblastoid cells (LCL) viability, plate reader
Assay: LCL viability reduction – cell-based, plate reader, cherry-picks, set 2, cytotoxicity control, dose response (AID 504882)

SMILES: COc1cc([C@@H]2c3cc4c(cc3[C@@H](O[C@@H]3O[C@@H]5CO[C@@H](C)O[C@H]5[C@H](O)[C@H]3O)[C@H]3COC(=O)[C@H]23)OCO4)cc(OC)c1O
- AC50: 531 nM
